Data from patent publication US9663503B2, “5-[[4-[[morpholin-2-yl]methylamino]-5-(trifluoromethyl)-2-pyridyl]amino]pyrazine-2-carbonitrile and therapeutic uses thereof” (priority 2012, dated 2017).

Assays:
SW620 cells = experiment: Cellular efficacy in combination with gemcitabine (SRB potentiation); format: cell-based; details: SRB IC50/Potentiation IC50, 96 hour, gemcitabine at its IC50
HT29 cells = experiment: Cellular potency in Mitosis Inhibition Assay (MIA), checkpoint abrogation after etoposide; format: cell-based; details: etoposide pre-treatment, with nocodazole, read-out: CHK1 Cellular Potency MIA IC50

Cn1cc(-c2cnc(Nc3cnc(C#N)cn3)cc2NC[C@@H]2CNCCO2)cn1 [Compound Y-152]
Cell Efficacy + Gemcitabine in SW620 cells (Potentiation Index) (SW620 cells): 8 fold | IC50 (HT29 cells): 0.4 µM
